Results on one molecule are retold here after PMC7181703, “Using proteolysis-targeting chimera technology to reduce navitoclax platelet toxicity and improve its senolytic activity” (Nature Communications, 2020).

Protein sequences, listed by entry. Tags and fused reporters are not part of them.
UniProt P10415, whole entry: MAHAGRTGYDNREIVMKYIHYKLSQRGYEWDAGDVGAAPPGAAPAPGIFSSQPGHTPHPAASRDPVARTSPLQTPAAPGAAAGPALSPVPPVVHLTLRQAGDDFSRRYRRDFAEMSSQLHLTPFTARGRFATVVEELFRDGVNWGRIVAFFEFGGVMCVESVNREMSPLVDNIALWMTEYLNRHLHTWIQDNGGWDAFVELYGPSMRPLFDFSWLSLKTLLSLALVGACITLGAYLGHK

SMILES strings stand for the structures.

The target of this experiment is T1, Bcl-2 (Homo sapiens, UniProt P10415).
T1 construct: gene BCL2; Purified recombinant His-tagged Bcl-2
The experiment in a line: biochemical. More on the design: AlphaLISA competitive displacement of biotin-tagged BAD or BIM peptide from His-tagged Bcl-2 family protein. The method, then:
Purified recombinant His-tagged Bcl-xl, His-tagged Bcl-2 and His-tagged Bcl-w (Cat. No. SRP0187 for Bcl-xl, Cat. No. SRP0186 for Bcl-2 and Cat. No. B1059 for Bcl-w, Sigma-Aldrich) were incubated with increasing concentrations of compounds and a fixed concentration of biotin-tagged BAD (Cat No. SQ-ASPE-66592-1, AnaSpec, Fremont, CA) (for Bcl-xl) or BIM (Cat. No. SQ-ASPE-66592-2, AnaSpec) (for Bcl-2 and Bcl-w) peptides to a final volume of 40 µL in 96-well PCR plates. After 24 h incubation, 5 µL 6X His-Acceptor beads (final concentration 20 µg/mL) (Cat. No. AL128M, Perkin-Elmer, Waltham, MA, USA) were added to each well and incubated for 1 h. Thereafter, 5 µL streptavidin-donor beads were added (final concentration of 20 µg/mL) (Cat. No. 6760002, Perkin-Elmer) to each well and incubated for 30 min. At the end of the incubation period, 17 µL of each sample was transferred into adjacent wells of 384-well proxy plate (Cat. No. 6008280, Perkin-Elmer). The plate was scanned using Alpha program on a Biotek’s Synergy Neo2 multi-mode plate reader (Winooski, VT, USA). Gen5 version 3.04 software (BioTek, USA) was used for the AlphaLISA signal measurements. The inhibition constant (Ki) was calculated using non-linear regression, one site, competitive binding, fit Ki function on GraphPad Prism 7 software based on experimentally determined Kd for each protein/peptide pair.

For the molecule `CC1(C)CCC(c2ccc(Cl)cc2)=C(CN2CCN(c3ccc(C(=O)NS(=O)(=O)c4ccc(N[C@H](CCN5CCOCC5)CSc5ccccc5)c(S(=O)(=O)C(F)(F)F)c4)cc3)CC2)C1` [ABT263], the Ki is 1.03 nM.

For orientation: Ki means the equilibrium dissociation constant of an inhibitor or competing ligand from its target.
